AlphaSeq binding of Ab-14 heavy chain variants to a spike HR2 peptide

Target: peptide PDVDLGDISGINAS, taken from heptad repeat 2 (HR2) of SARS-CoV-2 spike.

Parent scFv Ab-14: VH joined to VL by three GGGGS repeats. Changes lie in the heavy chain CDRs alone.
VH: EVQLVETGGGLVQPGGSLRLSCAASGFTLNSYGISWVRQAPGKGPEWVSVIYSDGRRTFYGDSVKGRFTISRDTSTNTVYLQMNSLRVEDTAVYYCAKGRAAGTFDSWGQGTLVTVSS
VL: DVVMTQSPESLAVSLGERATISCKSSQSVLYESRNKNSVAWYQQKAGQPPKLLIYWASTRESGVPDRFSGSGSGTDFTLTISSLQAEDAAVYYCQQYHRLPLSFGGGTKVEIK

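Phage display of a naive human antibody library on the peptide gave the parent. This is the validation round: designs drawn from the data on random variants, tested in the same kind of assay. Their group label is 14H_En_Gibbs (En: ensemble of fine-tuned language models; Gibbs: Gibbs sampling). AlphaSeq pools MATa yeast showing the antibodies with MATalpha yeast showing the peptide. After mating in shaken culture at 30 °C for 16 h, diploids were selected and their barcode pairs sequenced. A regression on co-assayed BCL2-family reference pairs converts the normalised counts of each replicate to an apparent Kd. Mating was done six times.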

Variants are written as CDR1, CDR2 and CDR3 of the heavy chain (limits as in the source). Parent: GFTLNSYGIS, VIYSDGRRTFYGDSVK, GRAAGTFDS.
Affinities are written as log10 Kd with Kd in nM; a lower number is a better binder.
A pair that was not seen in that replicate is written "ND"; this usually means weak binding, but a binder can also be missed.
The authors averaged sequences with at least three values out of six and counted those with two or fewer as poor binders.
Of ten entries with the parent sequence, four were seen in most replicates (averages 0.34 to 2.37), three in one and three in none, so single entries are noisy.
Empty control strains, which show no peptide, gave a signal in 1% of pairings with all heavy chain designs; the median was 2.08 and 95% of these signals were weaker than 0.84. No background was subtracted. For each scFv, signals with the empty controls are counted beside the result, with their mean in brackets.
Values of this round are not directly comparable with the first-round values of the same sequences.

CDR-H1 | CDR-H2 | CDR-H3 | replicates, log10 nM | control signals
GVNLDEYGIS | VIYADGVRSHYAESVK | GMHGDFGVV | ND ND ND ND 4.35 ND | 0/18
GFFLDEYGIS | VIYADGQRTAYKDKVK | GSDTGLGWF | ND ND ND ND ND ND | 0/18
FQLLDDYGIS | VIYADGKRQAYVNSVK | GEHAGTFDV | -0.58 0.07 -0.75 0.20 -0.78 -0.08 | 1/18 (1.33)
GFALNEYGIS | VIYADGSRKAYINSVK | GVNNIDVNV | ND ND ND ND ND ND | 0/18
GFDLEEYGIS | VIYADGKRMAYSNKVK | GLMAGTMID | ND ND ND ND ND ND | 0/18
GFNLNEYGIS | VIYADGMRVRYANNFK | GYLNTTLMV | ND ND ND ND ND ND | 0/18
GYSLDDYGIS | VIYADGKRKSYAEDVK | GNNGGSFMN | ND ND ND ND ND ND | 1/18 (2.06)
GFNLDEYGVS | VIYADGKRTVYHDSVK | GKRLGVKLN | ND ND ND ND ND ND | 0/18
GMNIDEYGIS | VIYADGMRTAYSNAVK | GAVGGDTIS | ND ND ND 2.23 ND ND | 1/18 (1.17)
GFDLDEYGIS | VIYADGMRNAYTADVK | GGKSEDFFT | ND ND ND ND ND ND | 1/18 (2.58)
GDILEDYGIS | VIYADGRRRAYVENVK | GVYAGYFDV | ND ND ND ND ND ND | 0/18
GFDLNEYGIS | VIYADGIRTAYSDQVK | SRDGIVILF | ND ND ND ND ND ND | 0/18
GFDLNEFGIS | VIYADGRQTFYTDNVK | GGNQGTFVN | ND ND 2.82 ND 3.36 ND | 0/18
GKNIDEYGVS | VIYADGKRTAYANNFK | GSNAGSFVS | ND ND ND ND ND ND | 2/18 (3.20)
GSKLDEYGIS | VIYADGVRTAYIEDVK | GQSGVSVVN | ND ND ND ND ND ND | 0/18
GFSLDEYGIS | VIYADGNRQAYIDAVK | GNYGGDFNE | ND ND ND ND ND ND | 0/18
GADLNEYGIS | VIYADGRQVYYANSFK | GHVAGTFDS | ND ND 2.03 ND 3.08 ND | 0/18
GFDLNEYGIS | VIYADGKRTAYLQNVK | GENAGFDQY | ND ND ND ND ND ND | 0/18
GFDLEEYGIS | VIYADGKRTAYKNTVK | GSFMIDFVV | ND ND ND ND ND ND | 1/18 (1.48)
GFSLDEYGIS | VIYADGVRRSYSDNVK | GFNGEVSIV | ND ND ND ND ND ND | 0/18
GFDIQEYGIS | VIYADGIRSAYINNVK | GDYGSQFFE | ND ND ND ND ND ND | 0/18
GFKLNEYGIS | VIYADGQRKAYTDSFK | GTQAGMVFE | ND ND ND ND ND ND | 0/18
GFQIDEYGIS | VIYADGLRTAYSDAVK | GMDTGLFMD | ND ND ND ND ND ND | 0/18
GFDIEEYGIS | VIYADGKRAAYADAVK | GENMDIMTD | ND ND ND ND ND ND | 0/18
GKKLDEYGIS | VIYADGKRNFYSNSVK | GQHDGGLFV | ND ND ND ND ND ND | 0/18
GKDLEEYGIS | VIYADGMRTAYKESVK | GQVAGIGKF | ND ND ND ND ND ND | 0/18
GMGLSEYGIS | VIYADGMRTSYDNSVK | GALAGTFDE | 0.56 0.14 0.31 0.45 1.65 0.57 | 0/18
GKLLDEYGIS | VIYADGMRMVYADSVK | GNLTDTLLV | ND ND ND ND ND ND | 0/18
GEDLNSYGIS | VIYADGLRTAYADNFK | GNGEGQFDV | ND ND ND ND ND ND | 0/18
GFNLDEYGIS | VIYADGRRTAYADSVK | NSVMSGRVT | ND ND ND ND ND ND | 1/18 (1.42)

From the list, the first 4 with no signal in any replicate:

| CDR-H1 | CDR-H2 | CDR-H3 | replicates, log10 nM | control signals |
|---|---|---|---|---|
| GFFLDEYGIS | VIYADGQRTAYKDKVK | GSDTGLGWF | ND ND ND ND ND ND | 0/18 |
| GFALNEYGIS | VIYADGSRKAYINSVK | GVNNIDVNV | ND ND ND ND ND ND | 0/18 |
| GFDLEEYGIS | VIYADGKRMAYSNKVK | GLMAGTMID | ND ND ND ND ND ND | 0/18 |
| GFNLNEYGIS | VIYADGMRVRYANNFK | GYLNTTLMV | ND ND ND ND ND ND | 0/18 |

Reference: Li et al. 2023, doi:10.1038/s41467-023-39022-2. File: FLAb, binding data.